Assay results from patent US20230364230A1, “COMBINATION THERAPY FOR CANCER” (ENGMAB SÀRL, priority 2020, published 2023).

System: NK cells
Assay: NK cell proliferation in DLBCL patient PBMCs stimulated with anti-CD3
Format: cell-based, human
Conditions: PBMCs treated 1 hour prior to anti-CD3 stimulation for 3 days
Protocol: Percentage of NK cells was analyzed via flow cytometry gated on live CD3-CD19-CD14-CD56+CD16+NK cells. Cytokinic NK cells were […]16^low and cytotoxic NK cells were CD56^lowCD16^high populations.

SMILES: Nc1cccc2c1CN(C1CCC(=O)NC1=O)C2=O (stereo not shown) [lenalidomide, 3-(7-amino-3-oxo-1H-isoindol-2-yl)piperidine-2,6-dione]
- NK cell proliferation in DLBCL patient samples: dose dependently enhanced
